Patent US20250297220A1, “IMMUNE-ACTIVATING COMPLEXES” (Dynamic Cell Therapies, Inc., priority 2022, published 2025)

Test: Molar absorptivities at 280 nm and 493 nm
Type: physicochemical
Protocol: UV-vis absorption profiles were obtained for compound 7-functionalized antibodies, unfunctionalized antibodies, and free compound 7. FIG. 47 provides the results of these analyses. Molar absorptivities (8) were determined for the anti-BCMA antibody at 280 nm (primarily corresponding tyrosine and tryptophan absorbances from the anti-BCMA antibody) and at 493 nm for maleimide fluorescein and 5 (6)-carboxy fluorescein (primarily corresponding to the HOMO to LUMO transition within the fluorescein x-system), and are summarized in Table 18. As the unfunctionalized antibody minimally absorbed around 493 nm, absorbance in this region is quantitative for fluorescein concentration.

- ε280 nm (molar absorptivity at 280 nm): 14752 M⁻¹ cm⁻¹
- ε493nm (molar absorptivity at 493 nm): 79828 M⁻¹ cm⁻¹
Substance: 5(6)-Carboxy Fluorescein
